Assay results published in patent US20070185115A1, “Novel ureido-and amido-pyrazolone derivatives” (Aston University, priority 2003, published 2007).
Like-named read-outs stand apart in the source and are kept apart here.

By UniProt entry, the sequences of proteins in these tests, tags left out. Residues count along the entry.
UniProt H0VZC5, 1-426: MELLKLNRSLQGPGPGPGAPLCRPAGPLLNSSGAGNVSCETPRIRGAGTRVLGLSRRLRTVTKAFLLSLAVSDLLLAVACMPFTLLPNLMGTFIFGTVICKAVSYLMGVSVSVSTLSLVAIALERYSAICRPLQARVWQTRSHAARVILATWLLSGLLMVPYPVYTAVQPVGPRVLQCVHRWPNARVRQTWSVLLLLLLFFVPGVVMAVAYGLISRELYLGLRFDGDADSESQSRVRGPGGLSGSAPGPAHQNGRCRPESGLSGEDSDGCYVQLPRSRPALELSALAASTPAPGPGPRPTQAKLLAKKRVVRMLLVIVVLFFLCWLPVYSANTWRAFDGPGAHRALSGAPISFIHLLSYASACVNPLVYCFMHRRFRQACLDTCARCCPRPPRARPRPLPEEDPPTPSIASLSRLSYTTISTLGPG

Biological target: CCKB receptor (Cavia porcellus, UniProt H0VZC5)
Experiment: 125I-CCK-8 receptor binding assay, CCKB (guinea pig cerebral cortex membranes)
Protocol: Pharmacological Methods—^[125]I-CCK-8 Receptor Binding Assay
CCKA and CCKB receptor binding assays were performed, by using guinea pig cerebral cortex (CCKB) or rat pancreas (CCKA). Male guinea pig brain tissues were prepared according to the modified method described by Saita et al, [(1994), Characterization of YM022: its CCKB/gastrin receptor binding profile and antagonism to CCK-8-induced Ca2+mobilization., Eur. J. PharmacoL,269, 249-254]. Pancreatic membranes were prepared in a similar way but by Charpentier et al, [(1988), Cyclic cholecystokinin analogues with high selectivity for central receptors., Proc Natl Acad Sci USA, 85, 1968-1972]. For the in vivo CCK binding assay tissues were homogenised in ice cold sucrose (0.32 M, 25 ml) for 15 strokes at 500 rpm and centrifuged at 13000 rpm for 10 mins. The supernatant was re-centrifuged at 13000 rpm for 20 mins. The resulting pellet was re-dispersed to the required volume of buffer at 500 rpm and stored in aliquots at […].
Binding was achieved using a.radioligand ^125I-Bolton-Hunter labeled CCK, NEN at 25 pM. The samples were incubated {with membranes (0.1 mg/ml)} in 20 mM Hepes, 1 mM EGTA, 5 mM MgCl2, 150 mm NaCl, 0.25 mg/ml bacitracin at pH 6.5 for 2 hrs at RT and then […] by centrifugation at 1100 rpm for 5 minutes. The membrane pellets were washed twice with water and the bound radioactivity was measured in a Packard Cobra Auto-gamma counter (B5005). All binding assays were carried out with L-365, 260 (Bock, M. G., et. al., Benzodiazepine gastrin and brain cholecystokinin receptor ligands. L-365,260, J. Med. Chem. 1989, 32, 14-24) as an internal non-specific standard. Controls (no compound) were also added. All samples were made in duplicate and repeated twice. All compounds were initially screened for percentage inhibition at 20 μm. Samples showing an average inhibition of <35% were diluted to 2μm and re-screened and if active diluted again.

[1] = read-out: IC50 CCKB, Table 1, phenyl pyrazolinone ureas, 125I-Bolton-Hunter CCK 25 pM

Row | SMILES | IC50 (read-out: IC50 CCKB, Table 3, diphenyl pyrazolyl ureas, 125I-Bolton-Hunter CCK 25 pM) | IC50 [1]
1 | Cc1c(NC(=O)Nc2ccc([N+](=O)[O-])cc2)c(=O)n(-c2ccccc2)n1-c1ccccc1 | > 20 µM | –
2 | Cc1c(NC(=O)NC(C)(C)C)c(=O)n(-c2ccccc2)n1C | – | 8 µM
3 | Cc1c(NC(=O)Nc2ccc([N+](=O)[O-])cc2)c(=O)n(-c2ccccc2)n1C | – | > 20 µM
4 | COc1cccc(NC(=O)Nc2c(C)n(C)n(-c3ccccc3)c2=O)c1 | – | > 10 µM
5 | Cc1ccccc1NC(=O)Nc1c(C)n(C)n(-c2ccccc2)c1=O | – | 7 µM
